# Values quoted from earlier work as cited in patent US20170299609A1, “TREATMENT OF AMYOTROPHIC LATERAL SCLEROSIS WITH SK CHANNEL ACTIVATORS” (Wright State University, priority 2016, published 2017).
# Test system: humans with ALS
# Conditions: cited from earlier work
compound,measurement,value
Nc1nc2ccc(OC(F)(F)F)cc2s1 [riluzole],"extension of survival of humans with ALS, on average",about 3 months
